How the values were obtained:
[1] = target: T1, hSSTR2 (Homo sapiens, UniProt P30874); assay: Somatostatin receptor radioligand binding assay, hSSTR2
T1 construct: host or cells: 'Cells expressing hSSTR2'

Chains of the proteins cited; added tags and fusions are not shown. Lines headed by an entry give the natural chain unless they say otherwise; changes in a name come on top.
UniProt P30874: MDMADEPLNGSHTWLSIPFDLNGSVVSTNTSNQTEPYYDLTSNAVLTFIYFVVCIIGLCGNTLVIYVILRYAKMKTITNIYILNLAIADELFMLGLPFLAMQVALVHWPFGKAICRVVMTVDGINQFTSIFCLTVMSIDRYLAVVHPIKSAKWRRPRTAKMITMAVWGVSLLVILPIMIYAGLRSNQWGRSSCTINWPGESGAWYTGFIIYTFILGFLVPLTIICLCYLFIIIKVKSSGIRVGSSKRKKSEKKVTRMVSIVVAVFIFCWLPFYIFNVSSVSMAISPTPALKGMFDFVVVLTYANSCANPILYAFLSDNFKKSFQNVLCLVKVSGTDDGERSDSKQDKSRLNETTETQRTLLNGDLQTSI
UniProt P35346: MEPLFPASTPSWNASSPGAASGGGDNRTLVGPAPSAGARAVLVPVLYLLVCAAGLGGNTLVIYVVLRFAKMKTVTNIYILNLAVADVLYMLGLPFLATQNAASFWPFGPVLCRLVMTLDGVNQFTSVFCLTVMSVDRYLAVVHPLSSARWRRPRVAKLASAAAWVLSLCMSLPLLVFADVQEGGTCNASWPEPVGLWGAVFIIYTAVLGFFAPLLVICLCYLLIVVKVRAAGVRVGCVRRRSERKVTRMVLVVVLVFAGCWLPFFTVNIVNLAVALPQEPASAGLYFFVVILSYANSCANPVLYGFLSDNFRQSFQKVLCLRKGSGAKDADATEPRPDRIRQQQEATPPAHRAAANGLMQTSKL

[2] = target: T2, hSSTR5 (Homo sapiens, UniProt P35346); assay: Somatostatin receptor radioligand binding assay, hSSTR5; details: CHO-K1 membranes, [125-Tyr]-[DPhe-cyclo(Cys-Tyr-DTrp-Lys-Val-Cys)-Thr-NH2]; read-out: hSSTR5 Ki (nM) ± SEM
T2 construct: expressed in transfected cells; host or cells: CHO-K1 (ATCC), pcDNA3.1, G418-selected clonal line; membranes

C[C@@H](O)[C@@H]1NC(=O)[C@H](CCCCN)NC(=O)[C@@H](Cc2c[nH]c3ccccc23)NC(=O)[C@H](Cc2ccccc2)NC(=O)[C@H](Cc2ccccc2)NC(=O)[C@H](CCCNC(=N)N)NC(=O)[C@H](NC(=O)CSC[C@@H]2C[C@@H]3c4cccc5[nH]cc(c45)C[C@H]3N(C)C2)CCCCNC(=O)[C@H](Cc2ccccc2)NC1=O [Compound 44, Dop1-cyclo(DLys-Arg-Phe-Phe-DTrp-Lys-Thr-Phe)] gave a Ki [1] of 1.37 ± 0.23 nM and a Ki [2] of 1.38 ± 0.3 nM.

— patent US9731027B2, “Somatostatin-dopamine chimeric analogs” (Ipsen Pharma S.A.S., priority 2012, dated 2017)
